Test results published in patent EP4837910A1, “ISOXAZOLINE COMPOUND AND PREPARATION METHOD THEREFOR, HERBICIDAL COMPOSITION, AND USE” (dated 2026).

Assays:
[1] = system: Monocotyledonous and dicotyledonous weed; test: Pre-emergence test on weeds (greenhouse, sprayed immediately after sowing); settings: fresh weight control rate; for activity level of plant damage (growth control rate), Triticum aestivum: crop Triticum aestivum; for activity level of plant damage (growth control rate), Zea mays: crop Zea mays; for activity level of plant damage (growth control rate), Digitaria sanguinalis / activity level of plant damage (growth control rate), Lolium multiflorum / activity level of plant damage (growth control rate), Setaria viridis / activity level of plant damage (growth control rate), Descurainia sophia: after 4 weeks in greenhouse
Description: (§1) The criteria for activity levels of plant damage (i.e., growth control rate) are as follows: • Level 9: completely dead; • Level 8: growth control rate greater than or equal to 90% and less than 100%; • Level 7: growth control rate greater than or equal to 80% and less than 90%; • Level 6: growth control rate greater than or equal to 70% and less than 80%; • Level 5: growth control rate greater than or equal to 50% and less than 70%; • Level 4: growth control rate greater than or equal to 30% and less than 50%; • Level 3: growth control rate greater than or equal to 20% and less than 30%; • Level 2: growth control rate greater than or equal to 10% and less than 20%; • Level 1: growth control rate less than 10%; • Level 0: no effect.
(§2) The above growth control rates are fresh weight control rates.
Monocotyledonous and dicotyledonous weed seeds as well as major crop seeds were placed in plastic pots filled with soil and then covered with 0.5-2 cm of soil. The test compounds of the present invention were individually dissolved with acetone, then added with Tween® 80, diluted with certain amount of water to obtain solutions of certain concentrations, and sprayed immediately after sowing. After drug application, the experimental results on weeds were observed after 4 weeks of cultivation in a greenhouse. Table 3 Results of pre-emergence test on weeds

[2] = system: Monocotyledonous and dicotyledonous weed; test: Post-emergence test on weeds (greenhouse, spray tower); settings: after 3 weeks of cultivation in a greenhouse, fresh weight control rate
Description: as §1, §2
Monocotyledonous and dicotyledonous weed seeds as well as major crop seeds were placed in plastic pots filled with soil and then covered with 0.5-2 cm of soil to allow them grow in a favorable greenhouse environment. Two weeks after sowing, the test plants were treated. The test compounds of the present invention were individually dissolved with acetone, then added with Tween® 80 and the emulsifiable concentrate of methyl oleate as a synergist, diluted with certain amount of water to obtain solutions of certain concentrations, and sprayed to the plants using a spray tower. After drug application, the experimental results on weeds were collected after 3 weeks of cultivation in a greenhouse. Table 2 Results of post-emergence test on weeds

[3] = sprayed immediately after sowing, 240 g a.i./ha, observed after 4 weeks in greenhouse
[4] = Lolium multiflorum, Dosage 240 g a.i./ha

SMILES | activity level (growth control rate), Digitaria sanguinalis [1, 3] | activity level (growth control rate), Setaria viridis [1, 3] | Amaranthus retroflexus, activity level of plant damage (growth control rate) ([2]; Dosage 60 g a.i./ha) | Digitaria sanguinalis, activity level of plant damage (growth control rate) ([2]; Dosage 60 g a.i./ha) | Echinochloa crus-galli, activity level of plant damage (growth control rate) ([2]; Dosage 60 g a.i./ha) | activity level of plant damage (growth control rate), Digitaria sanguinalis ([1]; Dosage 240 g a.i./ha) | activity level of plant damage (growth control rate), Setaria viridis ([1]; Dosage 240 g a.i./ha) | further results
C#CC[C@H](NC(=O)[C@@]1(C(=C)C)CC(c2cc(Cl)cc(Cl)c2)=NO1)C(=O)NOCC | 9 | 9 | 6 (Level 6: growth control rate greater than or equal to 70% and less than 80%) | 8 (Level 8: growth control rate greater than or equal to 90% and less than 100%) | 6 (Level 6: growth control rate greater than or equal to 70% and less than 80%) |  |  | activity level of plant damage (growth control rate), Triticum aestivum [1, 3]: 0; activity level of plant damage (growth control rate), Zea mays [1, 3]: 0
C=C(C)[C@]1(C(=O)N[C@@H](C)C(=O)NOCC)CC(c2cc(F)cc(F)c2)=NO1 |  |  |  |  |  | 9 | 9 | activity level of plant damage (growth control rate), Lolium multiflorum [1, 4]: 9; Avena fatua, activity level of plant damage (growth control rate) ([2]; Dosage 240 g a.i./ha): 9; Digitaria sanguinalis, activity level of plant damage (growth control rate) ([2]; Dosage 240 g a.i./ha): 9; Echinochloa crus-galli, activity level of plant damage (growth control rate) ([2]; Dosage 240 g a.i./ha): 9
C=C[C@]1(C(=O)N[C@H](C)C(=O)N(C)OC)CC(c2cc(F)cc(F)c2)=NO1 |  |  |  |  |  |  |  | activity level of plant damage (growth control rate), Descurainia sophia ([1]; Dosage 250 g a.i./ha): 6 (Level 6: growth control rate greater than or equal to 70% and less than 80%); activity level of plant damage (growth control rate), Digitaria sanguinalis ([1]; Dosage 250 g a.i./ha): 9; activity level of plant damage (growth control rate), Lolium multiflorum ([1]; Lolium multiflorum, Dosage 250 g a.i./ha): 9; activity level of plant damage (growth control rate), Setaria viridis ([1]; Dosage 250 g a.i./ha): 9; Avena fatua, activity level of plant damage (growth control rate) ([2]; Dosage 240 g a.i./ha): 9
C=C(C)[C@]1(C(=O)N[C@H](C(=O)NOCC)C2CC2)CC(c2cc(F)cc(F)c2)=NO1 |  |  | 6 (Level 6: growth control rate greater than or equal to 70% and less than 80%) | 6 (Level 6: growth control rate greater than or equal to 70% and less than 80%) | 8 (Level 8: growth control rate greater than or equal to 90% and less than 100%) | 8 (Level 8: growth control rate greater than or equal to 90% and less than 100%) | 6 (Level 6: growth control rate greater than or equal to 70% and less than 80%) | 
C=C[C@]1(C(=O)N[C@@H](C)C(=O)N(C)OC)CC(c2cc(F)cc(C(F)(F)F)c2)=NO1 |  |  |  |  |  | 9 | 9 | activity level of plant damage (growth control rate), Descurainia sophia ([1]; Dosage 240 g a.i./ha): 6 (Level 6: growth control rate greater than or equal to 70% and less than 80%); activity level of plant damage (growth control rate), Lolium multiflorum [1, 4]: 9; Avena fatua, activity level of plant damage (growth control rate) ([2]; Dosage 240 g a.i./ha): 9
C=C[C@]1(C(=O)N[C@@H](C)C(=O)N(CC)OC)CC(c2cc(F)cc(F)c2)=NO1 |  |  |  |  |  | 9 | 9 | activity level of plant damage (growth control rate), Descurainia sophia ([1]; Dosage 240 g a.i./ha): 7 (Level 7: growth control rate greater than or equal to 80% and less than 90%); activity level of plant damage (growth control rate), Lolium multiflorum [1, 4]: 9; Avena fatua, activity level of plant damage (growth control rate) ([2]; Dosage 240 g a.i./ha): 9; Digitaria sanguinalis, activity level of plant damage (growth control rate) ([2]; Dosage 240 g a.i./ha): 5 (Level 5: growth control rate greater than or equal to 50% and less than 70%)
C=C(C)[C@]1(C(=O)N[C@@H](C)C(=O)NOC2CCC2)CC(c2cc(F)cc(F)c2)=NO1 | 9 | 9 |  | 8 (Level 8: growth control rate greater than or equal to 90% and less than 100%) | 8 (Level 8: growth control rate greater than or equal to 90% and less than 100%) |  |  | 
C=C(C)[C@]1(C(=O)N[C@@H](C)C(=O)NOCCCCCCCC)CC(c2cc(Cl)cc(Cl)c2)=NO1 | 8 (Level 8: growth control rate greater than or equal to 90% and less than 100%) | 8 (Level 8: growth control rate greater than or equal to 90% and less than 100%) | 8 (Level 8: growth control rate greater than or equal to 90% and less than 100%) | 8 (Level 8: growth control rate greater than or equal to 90% and less than 100%) | 8 (Level 8: growth control rate greater than or equal to 90% and less than 100%) |  |  | activity level of plant damage (growth control rate), Triticum aestivum [1, 3]: 0; activity level of plant damage (growth control rate), Zea mays [1, 3]: 1 (Level 1: growth control rate less than 10%)
C=C(C)[C@]1(C(=O)N[C@@H](C)C(=O)NOC/C=C/Cl)CC(c2cc(F)cc(Cl)c2)=NO1 | 9 | 9 | 6 (Level 6: growth control rate greater than or equal to 70% and less than 80%) | 8 (Level 8: growth control rate greater than or equal to 90% and less than 100%) | 8 (Level 8: growth control rate greater than or equal to 90% and less than 100%) |  |  | 
C=C(C)[C@]1(C(=O)N[C@@H](C)C(=O)N2CCCCO2)CC(c2cc(F)cc(F)c2)=NO1 |  |  |  | 8 (Level 8: growth control rate greater than or equal to 90% and less than 100%) | 8 (Level 8: growth control rate greater than or equal to 90% and less than 100%) | 9 | 9 | activity level of plant damage (growth control rate), Descurainia sophia ([1]; Dosage 240 g a.i./ha): 9; activity level of plant damage (growth control rate), Lolium multiflorum [1, 4]: 9
C=C(C)[C@]1(C(=O)N[C@H](C(=O)NOC)C2CC2)CC(c2cc(Cl)cc(Cl)c2)=NO1 | 9 | 9 |  | 8 (Level 8: growth control rate greater than or equal to 90% and less than 100%) | 6 (Level 6: growth control rate greater than or equal to 70% and less than 80%) |  |  | activity level of plant damage (growth control rate), Zea mays [1, 3]: 0
CC(NC(=O)C1(C)CC(c2ccc(F)c(Cl)c2)=NO1)C(=O)N(C)C (stereo not shown) | 1 (Level 1: growth control rate less than 10%) | 1 (Level 1: growth control rate less than 10%) | 0 | 0 | 0 |  |  | activity level (growth control rate), Lolium multiflorum ([1]; Lolium multiflorum, sprayed immediately after sowing, 240 g a.i./ha, observed after 4 weeks in greenhouse): 2 (Level 2: growth control rate greater than or equal to 10% and less than 20%); activity level of plant damage (growth control rate), Triticum aestivum [1, 3]: 0; activity level of plant damage (growth control rate), Zea mays [1, 3]: 0; Avena fatua, activity level of plant damage (growth control rate) ([2]; Dosage 60 g a.i./ha): 0
C=C(C)[C@]1(C(=O)NCC(=O)NOCC)CC(c2cc(F)cc(Cl)c2)=NO1 | 9 | 9 | 8 (Level 8: growth control rate greater than or equal to 90% and less than 100%) | 8 (Level 8: growth control rate greater than or equal to 90% and less than 100%) | 8 (Level 8: growth control rate greater than or equal to 90% and less than 100%) |  |  | 
C=C(C)[C@]1(C(=O)N[C@@H](C)C(=O)NOCC2CCCCC2)CC(c2cc(F)cc(F)c2)=NO1 | 9 | 9 |  | 8 (Level 8: growth control rate greater than or equal to 90% and less than 100%) | 8 (Level 8: growth control rate greater than or equal to 90% and less than 100%) |  |  | 
